The entries are a selection whose mix differs from that of the whole data set. The source made the active and inactive calls.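 Rule for the calls: active = mean lysis activity across replicates of at least 80%, whatever share of replicates individually reach that level; inactive = mean lysis activity below 80%.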
Experiment: fungicidal lysis via adenylate kinase leakage – AK release luminescence, single concentration, primary screen (AID 651654)
Details: C. neoformans lysis, 4 h, at 15 µM, stronger effect = higher value, normalised: neutral wells 0, clomiphene wells 100
Method in brief: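 Material – Cryptococcus neoformans yeast cells · Quantity – 5 × 10^6 yeast cells/mL · Buffer or medium – YPD medium · Compound – single dose · Timing – 4 h static compound exposure, 37 °C, read 1 h post-reagent · Signal – adenylate kinase release luminescence · Read-out basis – lysis from increased AK signal · Benchmarks – Clomiphene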

SMILES | lysis activity
O=P1(Nc2ncccn2)COc2ccccc2OC1 | inactive: 1.53%
Cc1ccc(S(=O)(=O)N(CCCN)CCCc2c(C)nc(N)[nH]c2=O)cc1 | inactive: -1.6%
O=P1(Nc2ccc(Br)cn2)COc2ccccc2OC1 | inactive: -9.55%
NS(=O)(=O)c1cccc(NC(=O)COC(=O)C(O)(c2ccccc2)c2ccccc2)c1 | inactive: 0.517%
Cc1ccc(OCC(=O)OC2CN3CCC2CC3)cc1 (centres undefined) | inactive: -4.95%
O=[As](O)(c1cccs1)c1cccs1 | inactive: 0.151%
Nc1cccc([As](=O)(O)c2ccccc2)c1 | inactive: 2.53%
CC1CCC(C(C)C)C(OP(=O)(Nc2ccccn2)c2ccccc2)C1 (centres undefined) | inactive: 4.36%
Cc1ccc(C(=O)OC2CN3CCC2CC3)cc1 (centres undefined) | inactive: 13.2%
Cc1nn(-c2ccccc2)c2c1P(=O)(N1CCOCC1)N(C)C(c1ccccc1)=N2 (centres undefined) | inactive: -1.73%
CC(C)/C=N\N=C(\N)N[N+](=O)[O-] | inactive: -0.628%
CN(C(=O)Cc1ccc(Cl)c(Cl)c1)[C@@H]1CCCC[C@H]1N1CCCC1 | inactive: 1.33%
CN(CCCl)Cc1cc(Cl)c(NC2=NCCN2)c(Cl)c1 | inactive: -1.63%
CCOP(=O)(NC(=NC(C)c1ccccc1)NC(C)c1ccccc1)OCC (centres undefined) | inactive: 2.13%
O=P1(Nc2ccccn2)COc2ccccc2OC1 | inactive: 3.06%
CCC1=CC2Cc3nc4ccc(Cl)cc4c(N)c3C(C1)C2 (centres undefined) | inactive: 5.15%
CC(C)(C)C(=O)NC(Sc1ncccn1)C(Cl)(Cl)Cl (centres undefined) | inactive: -1.31%
O=P1(N(CCCl)CCCl)NCCC(C(F)(F)F)O1 (centres undefined) | inactive: -0.399%
Clc1n[nH]nc1-c1nn[nH][15n]1 | inactive: -0.527%
CCCOP(=S)(Nc1nc(N)cc(=O)[nH]1)OCCC | inactive: -3.84%
Cc1ccc(NCCc2c([N+](=O)[O-])cc([N+](=O)[O-])cc2[N+](=O)[O-])cc1 | inactive: 0.609%
Nc1cccc2c([As](=O)(O)O)cccc12 | inactive: -0.901%
CS(=O)(=O)c1ccc(Cl)c(NC(=O)COC(=O)C(O)(c2ccccc2)c2ccccc2)c1 | inactive: 3.23%
O=[As](O)(O)c1cccnc1 | inactive: 6.29%
O=C(OC1CN2CCC1CC2)c1ccc(Cl)cc1 (centres undefined) | inactive: 1.02%

SMILES | lysis activity
O=[As](O)(c1cccc(O)c1)c1cccc(O)c1 | inactive: 0.51%
Cc1cccc(OCC(=O)OC2CN3CCC2CC3)c1 (centres undefined) | inactive: 1.54%
NC(=O)Nc1ccc([As](=O)(O)O)cc1 | inactive: -0.714%
CN(C(=O)Cc1ccc(Cl)c(Cl)c1)[C@H]1CC[C@@]2(CCCO2)C[C@@H]1N1CCCC1 | inactive: -0.393%
CN(C)C(=O)c1cc([N+](=O)[O-])cc2c1-c1c(cc([N+](=O)[O-])cc1[N+](=O)[O-])C2=O | inactive: -6.41%
O=[N+]([O-])c1ccc2c(c1)nnn2O | inactive: -0.497%
CCOP1(=S)c2c(C)nn(CCC#N)c2N=C(c2ccc(F)cc2)N1C (centres undefined) | inactive: 0.339%
CN(C(=O)Cc1ccccc1)[C@@H]1CC[C@]2(CCCO2)C[C@H]1N1CCCC1 | inactive: -0.446%
N#CCCN(C(=O)COC(=O)C(O)(c1ccccc1)c1ccccc1)c1ccc(F)cc1 | inactive: 0.227%
O=P(Nc1nccs1)(c1ccccc1)c1nc2ccccc2s1 (centres undefined) | inactive: -0.226%
CCOP1(=S)c2c(C)nn(CCC#N)c2N=C(c2ccccc2F)N1C (centres undefined) | inactive: 2.68%
Nc1ccccc1[As](=O)(O)c1ccccc1 | inactive: -0.0235%
O=C(O)COc1ccc([As](=O)(O)O)cc1[N+](=O)[O-] | inactive: 0.37%
CC(C)c1ccc(OP(=O)(Nc2ccccn2)Oc2ccccc2F)cc1 (centres undefined) | inactive: 0.363%
ClCCSc1nnc(-c2cccnc2)o1 | inactive: -0.081%
CCN(CC)C(=S)SC(NC=O)C(Cl)(Cl)Cl (centres undefined) | inactive: 6.44%
O=C(OC1CN2CCC1CC2)c1cccc2[nH]cnc12 (centres undefined) | inactive: -2.39%
O=[N+]([O-])c1ccc(-c2cc([N+](=O)[O-])c(O)c([N+](=O)[O-])c2)cc1 | inactive: 15.9%
C[As](=O)(O)c1cccc(C(=O)O)c1 | inactive: 13.1%
O=[As](O)(c1ccc(O)cc1)c1ccccc1O | inactive: 7.85%
Cc1ccc(OP(=O)(Nc2ccc([N+](=O)[O-])cn2)Oc2ccc(C)cc2)cc1 | inactive: 0.84%
COc1ccc(N/C(=N/P(=O)(N2CCOCC2)N2CCOCC2)N2CCOCC2)cc1 | inactive: 4.7%
Cc1cc(=O)[nH]c(N[N+](=O)[O-])n1 | inactive: 3.11%
O=C(OC1CN2CCC1CC2)C12CC3CC(CC(C3)C1)C2 (centres undefined) | inactive: -2.23%
COc1cc(I)ccc1[As](=O)(O)O | inactive: 2.05%

SMILES | lysis activity
COc1ccc(CN2/C(=N\P(=O)(Oc3ccccc3)Oc3ccccc3)Cc3ccccc3C2C2CC2)cc1 (centres undefined) | inactive: -5.23%
O=P1(N(CCCl)CCCl)Nc2ccccc2N1 | inactive: -2.41%
CCOC(=O)c1ccc(NC(=O)C(C)(CCl)SC)cc1 (centres undefined) | inactive: -2.06%
CSc1ccc(Nc2c([N+](=O)[O-])cc([N+](=O)[O-])cc2[N+](=O)[O-])cc1 | inactive: -0.814%
O=C(OC1CN2CCC1CC2)c1cccc([N+](=O)[O-])c1 (centres undefined) | inactive: -1.79%
CCC(C)N(CC(C)C)C(=S)SC(NC(C)=O)C(Cl)(Cl)Cl (centres undefined) | inactive: 6.9%
COP1(=S)c2c(C)nn(CCC#N)c2N=C(c2ccc(F)cc2)N1C (centres undefined) | inactive: -4.2%
O=C(Nc1ccncc1[N+](=O)[O-])c1ccc([N+](=O)[O-])cc1[N+](=O)[O-] | inactive: -1.73%
O=C(COc1ccccc1)OC1CN2CCC1CC2 (centres undefined) | inactive: -3.41%
O=C(O)C(=O)c1ccc(N(CCCl)CCCl)cc1 | inactive: 0.122%
CCOC(=O)Nc1cccc([As](=O)(O)O)c1 | inactive: 0.641%
O=[N+]([O-])c1ccc(Nc2ccc(Oc3ccc([N+](=O)[O-])cc3[N+](=O)[O-])cc2)c([N+](=O)[O-])c1 | inactive: 0.228%
CC1CCNP(=O)(N(CCCl)CCCl)O1 (centres undefined) | inactive: -0.486%
CCOC(=O)Nc1ccc([As](=O)(O)O)c(O)c1 | inactive: -4.27%
O=C(O)C(O)c1ccc(N(CCCl)CCCl)cc1 (centres undefined) | inactive: -2.76%
CCCCOc1ccc(C(=O)NCC2(N3CCCCC3)CCCCC2)cc1OC | inactive: -2.48%
COP(=O)(OC)N1CC1c1ccccc1 (centres undefined) | inactive: -0.165%
O=[N+]([O-])c1cccc(NC2=NCC(CBr)S2)c1 (centres undefined) | inactive: -2.48%
O=C(O)CNc1ccc([As](=O)(O)O)cc1 | inactive: 0.936%
O=P1(N(CCCl)CCCl)OCCCS1 (centres undefined) | inactive: 2.4%
O=C(Nc1cc([As](=O)(O)O)ccc1O)c1ccccc1 | inactive: 8.88%
C[N+]1=C2C=CC=CC=C2SC12C([N+](=O)[O-])=CC([N+](=O)[O-])=C[C-]2[N+](=O)[O-] (centres undefined) | inactive: -2.18%
Nc1ccc([As](=O)(O)c2ccc(N)cc2)cc1 | inactive: 1.41%
CC(C)c1nc(Nc2ccccc2)n(P(=O)(N(C)C)N(C)C)n1 | inactive: 0.403%
c1cc(-c2nn[nH]n2)ccc1-c1nn[nH]n1 | inactive: 0.009%

SMILES | lysis activity
CC1CCN(C(=O)Oc2c(Cl)cc(Cl)c3cccnc23)CC1 | inactive: -0.695%
COc1ccc(C2=NCC(CBr)S2)cc1 (centres undefined) | inactive: 1.9%
O=[N+]([O-])c1cccc2n[nH]nc12 | inactive: 1.35%
CC(=O)N1C2C3N(C(C)=O)C1C1N(C(C)=O)C(C(N1C(C)=O)N3C(C)=O)N2C(C)=O | inactive: -17.6%
CCc1nc2c(n1)c1c(non1O)c1c2no[n+]1[O-] | inactive: 1.84%
CC(C)CC(=O)NC(Sc1ccc(Cl)cc1)C(Cl)(Cl)Cl (centres undefined) | inactive: 0.073%
O=C(NC(Sc1ccncn1)C(Cl)(Cl)Cl)c1ccccc1 (centres undefined) | inactive: -2.07%
Oc1ccccc1CNc1ccccn1 | inactive: -0.373%
Cc1ccc(N/C(=N/P(=O)(N2CCOCC2)N2CCOCC2)N2CCOCC2)cc1 | inactive: 4.14%
CN(C(=O)Cc1ccc(Cl)c(Cl)c1)[C@H]1CCCC[C@H]1N1CCCC1 | inactive: 1.19%
Cc1ccc(OP(=O)(Nc2nccs2)Oc2ccc(C)cc2)cc1 | inactive: 1.83%
Clc1ccc(Cl)c(NC2=NCC(CBr)S2)c1 (centres undefined) | inactive: 2.69%
CN1CCCC(OC(=O)C(c2ccccc2)c2ccccc2)C1 (centres undefined) | inactive: -0.226%
Nc1cccc2ccc([As](=O)(O)O)cc12 | inactive: -1.11%
CCCC1OP(N)(=O)OCC1CC (centres undefined) | inactive: 6.85%
O=C(O)c1ccccc1[As](=O)(O)O | inactive: 3.21%
CC(=O)Nc1ccc([As](=O)(O)O)cc1 | inactive: 2.49%
CN(C)P(=O)(N(C)C)n1c(Nc2ccccc2)nnc1-c1ccccc1 | inactive: 1.75%
CN(C(=O)Cc1ccc(Cl)c(Cl)c1)[C@H]1CCCC[C@@H]1N1CCCC1 | inactive: 0.131%
CCOP(=O)(Nc1ccccc1)OCC | inactive: -0.637%
CC(=O)NC(SC(=S)N(CC(C)C)CC(C)C)C(Cl)(Cl)Cl (centres undefined) | inactive: -2.03%
COC(=O)c1cc2c(s1)N=C(c1ccccc1)N(C)P2(=O)N1CCOCC1 (centres undefined) | inactive: -1.12%
CCC(=O)N1C2C3N(C(=O)CC)C1C1N(C(=O)CC)C(C(N1C(=O)CC)N3C(=O)CC)N2C(=O)CC | inactive: 3.47%
O=C(OC1CN2CCC1CC2)c1ccccc1 (centres undefined) | inactive: 6.01%

From PubChem BioAssay AID651654 (Broad Institute, 2012)
